For the assay, the system named is Phospholipase A2 (Naja naja). The assay is described as follows: Inhibitory activity against naja naja secretory Phospholipase A2 at 10 uM. To be noted: snake.

Structures are written as SMILES.

In the case of `CC(C)=CCC/C(C)=C/CC/C(C)=C/CC1=CCC(C2=CC(=O)OC2O)OC1` (stereo unspecified), the inhibition is 17.7%.

In general, inhibition refers to the drop in the measured response relative to a control, in per cent. Higher therefore signals strong suppression.

The values above are taken from ChEMBL document CHEMBL1131063 (J Med Chem, 1998).
